Reference: ChEMBL document CHEMBL3425429

The chains behind the UniProt entries cited, without tags or fusion partners. Where a name states a change or a piece, a line headed by the entry shows the natural chain unless it says otherwise.
UniProt P12931: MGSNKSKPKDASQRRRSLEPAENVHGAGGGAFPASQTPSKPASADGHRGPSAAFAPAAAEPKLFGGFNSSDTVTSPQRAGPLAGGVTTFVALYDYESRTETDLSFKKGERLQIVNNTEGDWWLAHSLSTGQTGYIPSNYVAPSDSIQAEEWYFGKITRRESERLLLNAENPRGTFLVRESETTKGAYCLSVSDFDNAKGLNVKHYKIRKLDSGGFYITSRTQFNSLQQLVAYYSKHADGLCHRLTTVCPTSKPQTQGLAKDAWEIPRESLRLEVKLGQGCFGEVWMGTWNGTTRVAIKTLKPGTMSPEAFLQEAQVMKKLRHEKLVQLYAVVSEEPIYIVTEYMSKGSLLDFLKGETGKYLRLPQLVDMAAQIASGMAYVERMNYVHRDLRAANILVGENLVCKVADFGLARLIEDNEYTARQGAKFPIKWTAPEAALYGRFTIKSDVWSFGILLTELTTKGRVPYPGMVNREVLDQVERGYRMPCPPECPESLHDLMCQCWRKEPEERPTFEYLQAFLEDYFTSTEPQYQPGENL

How the values were obtained:
[1] = test system: MDA-MB-231; assay: Induction of apoptosis in human MDA-MB-231 cells assessed as early apoptotic cells at 0.1 uM after 24 hrs by annexin V-FITC/propidium iodide staining-based flow cytometric analysis (reference value: 1.58%); format: functional
[2] = molecular target: Proto-oncogene tyrosine-protein kinase Src (Homo sapiens, UniProt P12931)

Compound | Activity [1] [%] | IC50 [2] [nM]
CCn1nc(C#Cc2cc(C(=O)Nc3ccc(CN4CCN(C)CC4)c(C(F)(F)F)c3)ccc2C)c2c(N)ncnc21 | 8.67 | –
C=CC(=O)N1CCC(n2nc(C#Cc3cc(C(=O)Nc4ccc(CN5CCN(C)CC5)c(C(F)(F)F)c4)ccc3C)c3c(N)ncnc32)CC1 | – | 15
